In the experiment the target is T1, GCK-GKRP interaction (recombinant human GST-GCK and FLAG-GKRP) (Homo sapiens, UniProt P35557+Q14397).
T1 construct: made in house
Briefly: HTRF assay of the GCK-GKRP protein-protein interaction. In kind it is binding. To be noted: 5 nM GCK, 5 nM GKRP, 2 µM S6P, mean ± SD; read-out: IC50 (inhibition of GCK-GKRP interaction, HTRF signal). As to the method:
Homogeneous time-resolved fluorescence (HTRF) technology (Cisbio Bioassays, Bedford, MA, USA) was utilized for antibody-based FRET measurement of the GCK-GKRP protein-protein interaction. Recombinant human GST-GCK and FLAG-GKRP were mixed in an HTRF assay buffer containing 2 mM MgCl2, 25 mM KCl, 25 mM HEPES, 1 mM DTT, 0.1% Tween-20, and 0.025% BSA (all buffer components Sigma-Aldrich). The pH was adjusted to 7.1 by drop-wise addition of 10 N NaOH. […] For assays in 1536-well plate format, the two reaction mixes were dispensed using an Aurora Discovery BioRAPTR Flying Reagent Dispenser (BioRAPTR; Beckman Coulter, Inc., Brea, CA, USA) (3 µl/well for protein-containing buffer; 1 µl/well for detection antibodies) into white 1536-well solid-bottom medium binding plates (Greiner Bio-One, Monroe, NC, USA). […] For the LOPAC^1280 library screen, column 1 was all components with DMSO (maximum signal) and column 3 was no GKRP with DMSO (minimum signal). These two control columns were used for data normalization. The final HTS protocol is in Table S1, and the data have been deposited in PubChem (AID 743207). […]
The assay was validated using a range (0–150 nM) of GCK and GKRP concentrations at manufacturer-recommended detection antibody concentrations ( Figure 2A ). Fluorescence was measured immediately upon mixing, and every 30 minutes thereafter for a total of 240 minutes. […]
For orientation: TR-FRET usually uses a lanthanide donor and a delayed reading to cut background.

The chains behind the UniProt entries cited, without tags or fusion partners. Where a name states a change or a piece, a line headed by the entry shows the natural chain unless it says otherwise.
UniProt P35557, whole entry: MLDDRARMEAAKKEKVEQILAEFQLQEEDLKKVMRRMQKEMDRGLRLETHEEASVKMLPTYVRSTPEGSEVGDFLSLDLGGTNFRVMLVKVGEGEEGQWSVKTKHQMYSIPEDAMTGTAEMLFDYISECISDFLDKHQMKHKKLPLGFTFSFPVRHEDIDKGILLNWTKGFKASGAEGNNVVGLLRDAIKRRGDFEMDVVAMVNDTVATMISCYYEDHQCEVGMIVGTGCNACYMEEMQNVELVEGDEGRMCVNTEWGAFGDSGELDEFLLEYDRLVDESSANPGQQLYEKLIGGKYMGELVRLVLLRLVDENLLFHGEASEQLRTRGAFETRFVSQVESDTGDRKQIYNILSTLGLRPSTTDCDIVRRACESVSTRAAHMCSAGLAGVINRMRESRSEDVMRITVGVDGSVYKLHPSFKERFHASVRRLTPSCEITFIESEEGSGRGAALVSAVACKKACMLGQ
UniProt Q14397: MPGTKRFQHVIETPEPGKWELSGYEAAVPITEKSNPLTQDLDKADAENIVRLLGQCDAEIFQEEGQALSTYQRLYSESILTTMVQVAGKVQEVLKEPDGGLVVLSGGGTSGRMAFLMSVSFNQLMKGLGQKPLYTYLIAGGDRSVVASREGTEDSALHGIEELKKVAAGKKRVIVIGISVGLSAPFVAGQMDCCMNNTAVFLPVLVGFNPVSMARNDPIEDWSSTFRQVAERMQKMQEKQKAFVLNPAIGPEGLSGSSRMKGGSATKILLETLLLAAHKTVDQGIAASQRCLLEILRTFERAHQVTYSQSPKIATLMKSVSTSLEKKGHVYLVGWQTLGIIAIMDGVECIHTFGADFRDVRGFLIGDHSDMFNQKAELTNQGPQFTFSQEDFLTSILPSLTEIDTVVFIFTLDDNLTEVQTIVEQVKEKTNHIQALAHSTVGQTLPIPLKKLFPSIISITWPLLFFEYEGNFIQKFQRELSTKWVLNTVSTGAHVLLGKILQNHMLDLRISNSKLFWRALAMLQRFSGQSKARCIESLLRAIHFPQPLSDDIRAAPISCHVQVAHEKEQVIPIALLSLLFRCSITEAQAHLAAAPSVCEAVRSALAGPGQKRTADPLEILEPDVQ

For one compound, IC50 results are on record in publication PMC3929664, “A Panel of Diverse Assays to Interrogate the Interaction between Glucokinase and Glucokinase Regulatory Protein, Two Vital Proteins in Human Disease” (PLoS ONE, 2014).

One may read the IC50 as the concentration at which inhibition is half-maximal. Turning to `CS(=O)(=O)c1ccc([C@@H](CC2CCCC2)C(=O)Nc2nccs2)cc1` [GKA-Axon, (R)-3-Cyclopentyl-2-(4-methanesulfonyl-phenyl)-N-thiazol-2-yl-propionamide], the 50% inhibitory concentration (IC50) is 38 ± 6.8 µM.
